Assay results taken from PubChem BioAssay AID761 (NMMLSC, 2007).
This is a selection; strong and weak results do not stand in their true shares. The source made the active and inactive calls.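 How the source made its calls: active means percent activity GTP binding at least 20 points away from the 100% baseline, either down as inhibitor or up as activator; inconclusive means compound flagged as likely green fluorescent from well-wide comparison; inactive means the rest.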

Sequences of proteins named here, by UniProt entry; tags and fusion partners are left off.
UniProt P60953, whole entry, looked up: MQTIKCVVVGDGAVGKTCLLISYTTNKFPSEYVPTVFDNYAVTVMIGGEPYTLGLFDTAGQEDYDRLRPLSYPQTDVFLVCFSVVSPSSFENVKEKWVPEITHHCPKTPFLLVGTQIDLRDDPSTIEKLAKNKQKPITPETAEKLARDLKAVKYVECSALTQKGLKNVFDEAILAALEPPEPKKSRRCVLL

biological target: Cell division control protein 42 homolog (Homo sapiens) (UniProt P60953); test: modulators of GTP binding to wildtype Cdc42, primary screen, biochemical, multiplex bead flow cytometry, Bodipy-GTP (AID 761); settings: GST-Cdc42 beads, at 10 µM, actives lie on both sides;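 further: median bead fluorescence of bound Bodipy-FL-GTP at 100 nM; 0% = excess unlabeled GTP control and 100% = no compound control; below 100% means less GTP binding so inhibitor and above means activator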

SMILES	percent activity (GTP binding)
O=[N+]([O-])c1ccc2c(c1)nnn2O	inactive: 104%
CCOP1(=S)c2c(C)nn(CCC#N)c2N=C(c2ccc(F)cc2)N1C (centres undefined)	inactive: 92%
O=P(Nc1nccs1)(Oc1ccccc1)Oc1ccccc1	inactive: 98%
O=P(Nc1nccs1)(c1ccccc1)c1nc2ccccc2s1 (centres undefined)	inactive: 100%
CCOP1(=S)c2c(C)nn(CCC#N)c2N=C(c2ccccc2F)N1C (centres undefined)	inactive: 101%
Cc1ccc(NCCc2c([N+](=O)[O-])cc([N+](=O)[O-])cc2[N+](=O)[O-])cc1	inactive: 98%
CCOP(=O)(Nc1cccc2ccccc12)OCC	inactive: 98%
COc1cc(C2NCCC3(OCCO3)C2(C)C)cc(OC)c1OC (centres undefined)	inactive: 100%
COc1cc(C(=O)NCC2(N3CCOCC3)CCCCC2)cc(Cl)c1OC(C)C	inactive: 96%
Cc1cccc(OCC(=O)OC2CN3CCC2CC3)c1 (centres undefined)	inactive: 104%
CC(C)/C=N\N=C(\N)N[N+](=O)[O-]	inactive: 95%
O=P1(Nc2ccccn2)COc2ccccc2OC1	inactive: 104%
Clc1n[nH]nc1-c1nn[nH][15n]1	inactive: 104%
O=P1(Nc2ncccn2)COc2ccccc2OC1	inactive: 103%
Cc1ccc(OCC(=O)OC2CN3CCC2CC3)cc1 (centres undefined)	inactive: 102%
O=P1(Nc2ccc(Br)cn2)COc2ccccc2OC1	inactive: 102%
CC1CCC(C(C)C)C(OP(=O)(Nc2ccccn2)c2ccccc2)C1 (centres undefined)	inactive: 97%
Cc1nn(-c2ccccc2)c2c1P(=O)(N1CCOCC1)N(C)C(c1ccccc1)=N2 (centres undefined)	inactive: 104%
CN(C)C1(CNC(=O)c2ccc(S(C)(=O)=O)cc2)CCCCC1	inactive: 98%
O=P(Nc1ccccn1)(c1cccc2ccccc12)c1cccc2ccccc12	inactive: 99%
Cc1cc(SC(NC=O)C(Cl)(Cl)Cl)ncn1 (centres undefined)	inactive: 96%
Cc1cc(SC(NC(=O)c2ccccc2)C(Cl)(Cl)Cl)nc(C(C)C)n1 (centres undefined)	inactive: 101%
CCC(C)N(CC(C)C)C(=S)SC(NC(C)=O)C(Cl)(Cl)Cl (centres undefined)	inactive: 98%
COP1(=S)c2c(C)nn(CCC#N)c2N=C(c2ccc(F)cc2)N1C (centres undefined)	inactive: 98%
O=C(COc1ccccc1)OC1CN2CCC1CC2 (centres undefined)	inactive: 102%
COc1ccc(N/C(=N/P(=O)(N2CCOCC2)N2CCOCC2)N2CCOCC2)cc1	inactive: 97%
Cc1cc(=O)[nH]c(N[N+](=O)[O-])n1	inactive: 98%
Cc1c2c(nc3ccccc13)SC(C(Cl)Cl)C2 (centres undefined)	inactive: 100%
COc1ccc2nc(NP(=O)(c3ccccc3)c3ccccc3)sc2c1	inactive: 94%
